An excerpt weighted towards active compounds, which were near 0.46% of everything screened.
GIV-Gai inh = inhibitors of GIV peptide binding to Galpha-i3, primary screen, biochemical, fluorescence polarization, FITC-GIV GBA peptide, rat Galphai3 | Guanine nucleotide-binding protein G(i) subunit alpha-3 (Rattus norvegicus), P08753 | 90 min; hits give low values; scaled: aluminum fluoride 0%, vehicle 100% | percent of control (FP), % (test concentration not listed) | hit rate 0.42% among 210,000 | AID 1224905, 2016;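 active = replicate mean at 85% of control or lower, very high polarization wells dropped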;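 note: wells of about 15 µL received 100 nL stock; the first replicate is given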
HCMV UL50-53 inh = inhibitors of HCMV UL50-UL53 interaction, biochemical, HTRF; HCMV UL50-UL53 nuclear egress complex (human cytomegalovirus); 190,000 compounds, 0.15% hits; inhibition, % (test concentration not listed); normalized percent inhibition; in the data active = inhibition above about 27%, passing the limit was not always enough
GIV-Gai FP conf = inhibitors of GIV peptide binding to Galpha-i3, confirmation, biochemical, fluorescence polarization, FITC-GIV peptide, rat Galphai3 | shares compounds with GIV-Gai inh | hits give low values | fluorescence polarization, mP at 100 µM | 580 compounds, 38% hits;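 active = inhibition score of 15 or more, meaning 100 minus mean polarization as percent of control over three replicates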;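 also: lower mP means peptide displaced from Galphai3 so more inhibition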
GIV Gai AS conf = inhibitors of GIV binding to Galpha-i3, confirmation, orthogonal assay for GIV-Galpha-i inhibitor project, biochemical, AlphaScreen, His-GIV, GST-Galphai3; purified proteins, 90 min; hits give low values; 580 compounds, 39% hits; shares compounds with GIV-Gai inh; AlphaScreen counts at 100 µM; AID 1259351, 2017;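 active = inhibition score at or above a set limit, where the score is 100 minus the three-replicate mean percent of control signal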
* marks the source's active call; other numbers are inactive results; . = no result.

Amino acid sequences for entries named in this document (tags omitted).
Guanine nucleotide-binding protein G(i) subunit alpha-3 (Rattus norvegicus), P08753, UniProt P08753, whole entry, looked up: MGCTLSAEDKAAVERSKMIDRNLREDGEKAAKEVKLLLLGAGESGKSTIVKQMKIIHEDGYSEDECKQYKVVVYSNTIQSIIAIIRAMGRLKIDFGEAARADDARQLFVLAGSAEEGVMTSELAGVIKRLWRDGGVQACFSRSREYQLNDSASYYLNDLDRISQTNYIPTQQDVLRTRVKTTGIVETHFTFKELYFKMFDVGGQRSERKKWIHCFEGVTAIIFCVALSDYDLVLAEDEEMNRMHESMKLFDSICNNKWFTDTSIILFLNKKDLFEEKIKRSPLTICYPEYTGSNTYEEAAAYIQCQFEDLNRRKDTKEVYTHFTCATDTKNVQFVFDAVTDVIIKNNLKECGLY

Values run as follows: GIV-Gai inh	HCMV UL50-53 inh	GIV-Gai FP conf	GIV Gai AS conf
> C[C@]12CC[C@@H]3[C@@H](CC[C@@]45O[C@@H]4C(O)=C(C#N)C[C@]35C)[C@@H]1CCC2O (some centres undefined)
 : .	-14.4	.	.
> CCS(=O)(=O)Nc1cccc(C(=C2CCCCC2)c2cnc[nH]2)c1
 : 86.9	-25.2	77.4	6784*
> CN1C(=O)C(=C/C=C/c2ccccc2)C(=O)N(C)C1=O
 : 80.9*	8.8	73.8	6725*
> C=CCN1C(=O)NC(=O)/C(=C/C=C/c2ccccc2)C1=O
 : 154.8	4.1	.	.
> CC12CN3CC(C)(CN(C1)C3c1ccccn1)C2O (centres undefined)
 : 99.5	-24.8	.	.
> COCCNC(=O)Cn1cc(C=C2C(=O)N(C)C(=O)N(C)C2=O)c2ccccc21
 : 96.1	-6.1	72.2	40853
> CN1C(=O)C(=Cc2cn(CC(=O)N3CCCC3)c3ccccc23)C(=O)N(C)C1=O
 : 103.2	.	.	.
> CCC(=O)OC1(c2ccccc2)CCN(C)CC1CC (centres undefined)
 : 106.1	.	.	.
> CC1OC(OC2CC(O)[C@]3(CO)[C@H]4C(O)C[C@]5(C)C(C6=CC(=O)OC6)CC[C@]5(O)[C@@H]4CC[C@]3(O)C2)C(O)C(O)C1O (some centres undefined)
 : .	-9.4	.	.
> C=CCN1C(=O)NC(=O)/C(=C/c2ccc(OCC(=O)O)c(OCC)c2)C1=O
 : 97.2	4.0	.	.
> CCc1ccc(N2C(=O)/C(=C/c3ccc(OCC(=O)O)c(Br)c3)C(=O)NC2=S)cc1
 : 57.4*	-30.1	34.4*	3342*
> CCCc1[nH]nc2c1C1(C(=O)Nc3ccc(Br)cc31)C(C(=O)OCC)=C(N)O2 (centres undefined)
 : 105.1	.	.	.
> c1ccc2c(CNC3CCCC3)c[nH]c2c1
 : 102.5	3.6	.	.
> COc1cc(C=C2C(=O)NC(=O)NC2=O)ccc1OS(=O)(=O)c1ccccc1[N+](=O)[O-]
 : 70.8*	51.2*	58.1	54298
> COc1cc(/C=C2\C(=O)NC(=O)N(c3ccccc3)C2=O)c([N+](=O)[O-])cc1OC
 : 110.7	.	.	.
> CNCCCCCCN(C)N(O)N=O
 : .	-5.3	.	.
> CCn1nc(-c2cccnc2)nc2c(=O)n(C)c(=O)nc1-2
 : 46.0*	70.8	39.5*	42657
> CCN(CC)C(=O)c1ccc(NC(=O)Cn2nc(-c3ccccc3)c3ccccc3c2=O)cc1
 : 107.1	4.1	.	.
> CCn1nc(-c2ccccc2)nc2c(=O)n(C)c(=O)nc1-2
 : 18.6*	88.3*	16.3*	24179
> CC(C)(C)c1ccc(C(=O)N/N=C/C23CC[C@@H](O)CC2(O)CC[C@@H]2[C@@H]3CCC3(C)C(C4=CC(=O)OC4)CCC23O)cc1 (some centres undefined)
 : 109.3	.	.	.
> CC(C)[C@]12OC1C1O[C@]13[C@]1(OC1CC1C4=C(CC[C@@]13C)C(=O)OC4)C2O (some centres undefined)
 : .	-61.8	.	.
> Cc1ccc2[nH]cc(C(O)CN3CCCCC3)c2c1 (centres undefined)
 : 106.4	-34.3	.	.
> CC[N+](CC)=c1ccc2ccc(O)cc2o1
 : 63.0*	-31.0	43*	33013*
> CC12CC[C@H]3[C@@H](CCC4(O)C[C@H](O)CCC34/C=N/NC(=O)CCc3c[nH]c4ccccc34)C1(O)CCC2C1=CC(=O)OC1 (some centres undefined)
 : 105.7	.	.	.
> O=C1NC(=O)C(=Cc2ccc(N3CCOCC3)cc2)C(=O)N1
 : 102.0	-1.6	.	.
> CC(C)c1ccc(C=C2C(=O)NC(=O)NC2=O)cc1
 : 32.3*	.	28*	33706
> O=C1NC(=O)C(=Cc2ccccc2)C(=O)N1
 : 28.9*	99.1*	31.6*	27826*
> O=C1NC(=O)N(c2ccccc2)C(=O)/C1=C/c1ccccc1
 : 96.9	6.1	.	.
> O=[N+]([O-])c1cc2c(c([N+](=O)[O-])c1)NCCN=C2c1ccccc1
 : 110.2	.	.	.
> CN(C(=O)Oc1ccccc1)c1ccc(C(O)(C(F)(F)F)C(F)(F)F)cc1
 : 102.0	-1.6	.	.
> Cc1nc(S(=O)(=O)N2CCCCC2c2cccnc2)cn1C (centres undefined)
 : 84.8*	-4.0	58.3	42642
> Nc1ccc(S(=O)(=O)N2CCCCC2c2cccnc2)cc1 (centres undefined)
 : 103.1	-16.5	.	.
> Cc1ccccc1NC1=NCCS1
 : .	-28.7	.	.
> c1ccc2c(NC3=NCCS3)cccc2c1
 : 83.4*	17.8	60.6	35407*
> CC12CC[C@@H]3C(=O)CCC(O)CC(=O)CC[C@H]3C1(O)CCC2C1=CC(=O)OC1 (some centres undefined)
 : 110.5	-6.3	.	.
> COc1cc2c(no[n+]2[O-])n2nnnc12
 : 79.8*	-95.7	68.1	11443*
> Cc1c(N)nc(C(CC(N)=O)NCC(N)C(N)=O)nc1C(=O)NC(C(=O)NC(C)C(O)C(C)C(=O)NC(C(=O)NCCc1nc(-c2nc(C(=O)NCCC[S+](C)C)cs2)cs1)C(C)O)C(OC1OC(CO)C(O)C(O)[C@H]1OC1OC(CO)C(O)C(OC(N)=O)C1O)c1cnc[nH]1 (some centres undefined)
 : .	-11.9	.	.
> Cc1ccc(-n2c(CCC(=O)O)nc3ccccc3c2=O)cc1
 : .	5.8	.	.
> CN1CCN(c2cc(N(C)CCO)c([N+](=O)[O-])c3nonc23)CC1
 : 118.7	.	.	.

Arranged by SMILES length (lowest first): some entries from above
Values run as follows: GIV-Gai inh	HCMV UL50-53 inh	GIV-Gai FP conf	GIV Gai AS conf
> Cc1ccccc1NC1=NCCS1
 : .	-28.7	.	.
> Cc1nc(S(=O)(=O)N2CCCCC2c2cccnc2)cn1C (centres undefined)
 : 84.8*	-4.0	58.3	42642
> Cc1ccc(-n2c(CCC(=O)O)nc3ccccc3c2=O)cc1
 : .	5.8	.	.
> Cc1c(N)nc(C(CC(N)=O)NCC(N)C(N)=O)nc1C(=O)NC(C(=O)NC(C)C(O)C(C)C(=O)NC(C(=O)NCCc1nc(-c2nc(C(=O)NCCC[S+](C)C)cs2)cs1)C(C)O)C(OC1OC(CO)C(O)C(O)[C@H]1OC1OC(CO)C(O)C(OC(N)=O)C1O)c1cnc[nH]1 (some centres undefined)
 : .	-11.9	.	.
